Consider one molecule from patent US20240034776A1 (FUDAN UNIVERSITY, published 2024).

This experiment deals with T1, Flag-tagged full-length human ITPRIPL1 (expressed from pcDNA3.1 in transfected cells) (human, UniProt Q6GPH6 25-555).
T1 construct: cDNA from NCBI NM_001008949.3; also called ITPRIPL1-Flag; HCT116-ITPRIPL1 stably transfected cell lines; not shown: C-terminal Flag tag
T1 sequence: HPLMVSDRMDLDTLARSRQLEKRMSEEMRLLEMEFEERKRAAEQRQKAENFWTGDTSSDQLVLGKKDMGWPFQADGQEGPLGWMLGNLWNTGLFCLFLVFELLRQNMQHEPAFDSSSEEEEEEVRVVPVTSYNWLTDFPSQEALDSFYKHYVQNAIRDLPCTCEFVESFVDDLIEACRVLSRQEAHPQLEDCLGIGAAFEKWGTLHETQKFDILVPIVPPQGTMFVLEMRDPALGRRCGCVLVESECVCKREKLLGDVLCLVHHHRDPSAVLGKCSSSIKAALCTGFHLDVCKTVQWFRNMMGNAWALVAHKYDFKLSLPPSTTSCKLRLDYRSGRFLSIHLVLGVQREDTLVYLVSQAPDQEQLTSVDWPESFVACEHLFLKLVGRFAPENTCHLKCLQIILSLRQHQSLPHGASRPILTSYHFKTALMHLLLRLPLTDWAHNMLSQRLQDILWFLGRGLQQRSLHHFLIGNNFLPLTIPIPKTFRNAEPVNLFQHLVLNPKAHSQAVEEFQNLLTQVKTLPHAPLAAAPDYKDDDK
Kind of experiment: co-immunoprecipitation (Flag IP) from co-transfected HCT116 cells, Western blot.

B1: HA-tagged CD3ε (expressed from pcDNA3.1 in transfected HCT116 cells) (receptor, human, UniProt P07766 23-207, looked up)
chain: DGNEEMGGITQTPYKVSISGTTVILTCPQYPGSEILWQHNDKNIGGDEDDKNIGSDEDHLSLKEFSELEQSGYYVCYPRGSKPEDANFYLYLRARVCENCMEMDVMSVATIVIVDICITGGLLLLVYYWSKNRKAKAKPVTRGAGAGGRQRGQNKERPPPVPNPDYEPIRKGQRDLYSGLNQRRI
notes: whole, on cells; also called CD3ε-HA; CD3E-HA; not shown: HA tag
For B1, the binding result is “binds”.
